# Compound activity (PubChem)
# Nrf2 ARE act: Nrf2 pathway activation; Potency, µM (doses to about 46.1 µM), actives largely listed as activators; AREc32 ARE-luciferase reporter (MCF7-derived line), luminescence, 24 h; actives 0.31% (n = 410,000); note: nearly all actives have a fitted effect of over 65% in size
#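 AREc32 cells carrying an ARE-driven firefly luciferase, 1000 cells/well in OPTI-MEM with 5% FBS, dosed after overnight attachment and incubated 24 hr at 37 deg C. Steady-Glo luminescence read after 30 min at RT.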
# Mito fusion act: blocks mitochondrial division or promotes mitochondrial fusion | S. cerevisiae fusion-defective mutant growth rescue, CellTiterGlo 48 h | Potency, µM (doses to about 46.1 µM), most hits filed as activators | actives 0.23% (n = 320,000) | AID 485298; note: nearly all actives have a fitted effect of over 45% in size
#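 Luminescent cell viability in 1536-well qHTS format served as the measure of rescued growth in ts fusion-mutant S. cerevisiae cultured on non-fermentable YPEG for 48 hours at 37C.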
# Nrf2 inh: blocks Nrf2 signaling; A549 ARE-Fluc reporter, luciferase luminescence, 18-24 h; Potency, µM (doses to about 46 µM), most hits filed as inhibitors; actives 2.1% (n = 360,000); AID 504444; note: nearly all actives have a fitted effect of over 60% in size
#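 Cells were seeded and rested 2 h, then exposed to compounds for 18-24 h. CellTiter-Fluor was read first as a viability measure. BugLite was added 15 min before the final luminescent read of ARE-luciferase activity in A549 cells.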
# miR-21 reporter: raises the signal of a miR-21 reporter; Potency, µM (doses to about 38.3 µM); HeLa miR-21 FLuc reporter, luciferase, 48 h; AID 2288; 340,000 tested, under 10 active; active = well fitted rising curve with a large enough effect; inconclusive = small, poorly fitted or top-dose-only effect; inactive = no such curve, though single readings can be large or run the other way;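 further: miR-21 action dims this reporter so a rising signal means less miR-21 action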
#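 Compounds were titrated across several concentrations (up to approximately 40 uM) and incubated 48 hours with HeLa miR-21-FLuc reporter cells (miR-21 target sequence downstream of FLuc, endogenous miR-21). Readout was firefly luciferase luminescence after lytic detection reagent.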
# A549 viability: kills or reduces viability of A549 cells in Nrf2 counter-screen. A549 ARE-Fluc cells, CellTiter-Fluor viability, 18-24 h. Potency, µM (top dose mostly 46 µM), hits mostly inhibitors. actives 0.16% (n = 390,000). AID 504648
#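 A549 ARE_Fluc cells in 5% FBS OPTI-MEM were exposed to compounds in concentration-response for 18-24 h at 37 deg C. Viability was read by CellTiter-Fluor fluorescence (Ex 405/Em 525) after 30 min, before the luciferase read.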
# Numbers stand for hits; - = inactive; ? = inconclusive; . = not tested or not shown. This is a sample that favours compounds with a hit; in the whole collection about 2.3% have one here. Unless noted, calls come from the whole dose curve; as a rule, active = well fitted curve in the direction sought with a large enough effect; inconclusive = small, poorly fitted or top-dose-only effect, or another doubt; inactive = no such curve, though single readings can be large; an effect the other way counts as inactive or inconclusive.
SMILES,Nrf2 ARE act,Mito fusion act,Nrf2 inh,miR-21 reporter,A549 viability
COC(=O)C(NNc1ccc(F)cc1)(NC(=O)c1ccccc1)C(F)(F)F (stereo not drawn),-,-,23µM,-,-
CCOc1ccccc1NC(=O)CSc1cn(CC(=O)N2CCCCCC2)c2ccccc12,-,.,-,-,-
COc1ccc(/C=C2\SC(=O)NC2=S)cc1OC,?,-,?,-,12µM
COc1ccc(/C=C2/SC(c3ccc(C)cc3)=NC2=O)cc1OC,-,-,?,-,-
CCOc1ccc(/C=C2\SC(=S)NC2=O)cc1OC,-,-,-,-,-
COc1ccc(/C=C2/CSC/C(=C/c3ccc(OC)c(OC)c3)C2=O)cc1OC,-,.,5.2µM,.,?
COc1ccc(/C=C2\SC(c3ccc(C)cc3)=NC2=O)cc1OC,-,-,16µM,-,-
COc1ccc(C(=O)O)cc1COc1ccc(NC(C)=O)cc1,.,.,-,.,-
CC(=O)c1ccc(NC(=O)c2nc(-c3ccccc3)n(-c3ccc(C)cc3)n2)cc1,-,.,-,-,-
O=C1CCc2cc(S(=O)(=O)Nc3ccc(Cl)c(Cl)c3)ccc2N1,.,.,-,.,?
COc1ccc2sc3ccccc3c(=O)c2c1OC,11µM,-,?,-,-
O=C1c2ccccc2-c2onc3ccc(Oc4ccccc4)c1c23,7.1µM,-,?,-,?
CCOCCCn1c(=N)c(C(=O)NCc2cccnc2)cc2c(=O)n3ccccc3nc21,-,.,-,-,?
COCC(=O)N(CCc1ccc(OC)cc1)Cc1nc2ccccc2c(=O)[nH]1,-,-,-,-,-
CCCC(=O)N(CCc1ccc(OC)cc1)Cc1nc2ccccc2c(=O)[nH]1,-,-,23µM,-,-
CCN(Cc1nc2ccccc2c(=O)[nH]1)C(=O)COc1ccccc1Cc1ccccc1,-,-,16µM,.,-
COc1cccc(C2c3c(ncn(-c4ccccc4-c4ccccc4)c3=N)Oc3ccc4ccccc4c32)c1 (stereo not drawn),.,.,-,.,-
O=C(c1ccco1)N1CCN(/C=C2\Nc3ccccc3C(=O)N2c2ccc(F)cc2)CC1,.,.,-,.,-
C=CC[n+]1c(-c2ccc(OCC)cc2)csc1NNC(=O)Nc1ccccc1,-,-,15µM,-,-
O=C(CS(=O)(=O)c1cccc2nsnc12)Nc1ccc(F)cc1F,-,.,.,-,-
Cc1ccccc1C(=O)NNC(=S)Nc1cccc(C(F)(F)F)c1,-,-,12µM,?,?
Cc1occc1C(=O)Nc1cccc(C(F)(F)F)c1,-,-,-,-,?
Cc1cnc(Nc2nc3ccccc3o2)nc1C(=O)Nc1cccc(C(F)(F)F)c1,-,-,16µM,-,?
Cc1ccc(C(=O)Nc2cccc(C(F)(F)F)c2)cc1Nc1ccccn1,-,-,21µM,-,?
C=C1CCN(C(C(=O)NCc2ccc(Cl)c(Cl)c2)C(C)C)S(=O)(=O)c2ccccc21 (stereo not drawn),.,.,-,.,-
SMILES,Nrf2 ARE act,Mito fusion act,Nrf2 inh,miR-21 reporter,A549 viability
CCOC(=O)c1c(-c2ccccc2)oc2ccc(OCc3ccccc3Br)cc12,-,.,-,-,-
CCn1cnc2c(Nc3ccc(CC(=O)N=C(N)N)cc3)nc(C#N)nc21,.,.,-,.,-
CC(=O)N1CCCc2cc(S(=O)(=O)N3CCCC(C(=O)NCc4ccc(C)cc4)C3)ccc21 (stereo not drawn),-,-,5.8µM,-,-
COc1ccc(NC(=O)C2CCCN(S(=O)(=O)c3cccnc3)C2)cc1OC (stereo not drawn),-,-,-,-,-
COc1ccc(NC(=O)C2CCCN(S(=O)(=O)c3ccc4c(c3)CCCN4C(C)=O)C2)cc1Cl (stereo not drawn),-,-,16µM,-,-
CC(=O)N1CCCc2cc(S(=O)(=O)N3CCCC(C(=O)NCc4ccccc4)C3)ccc21 (stereo not drawn),-,-,?,?,-
COc1ccc(S(=O)(=O)N2CCCC(C(=O)Nc3cccnc3)C2)cc1Cl (stereo not drawn),-,-,16µM,-,-
Cc1cccc(NC(=O)c2cc(S(=O)(=O)NCc3ccc4c(c3)OCO4)ccc2F)c1C,-,.,.,-,-
Oc1c(C(c2ccccc2)N2CCC(O)CC2)sc2nc(-c3ccco3)nn12 (stereo not drawn),-,.,.,-,-
O=C(CC(=O)c1ccccc1)c1ccccc1,14µM,.,-,.,-
O=C(CC(=O)c1ccncc1)c1ccccc1,?,.,-,.,-
CCC(C(=O)NC1CCCCC1)N(Cc1cccs1)C(=O)CCC(=O)Nc1cc(C)on1 (stereo not drawn),-,-,8.2µM,-,-
COc1cccc(-n2nnnc2S(C)(=O)=O)c1,?,-,10µM,?,?
CC(=O)c1ccc(OCC(O)CN2CCN(S(=O)(=O)c3c(C)c(C)cc(C)c3C)CC2)cc1 (stereo not drawn),-,-,26µM,-,?
Cc1ccc(NC(=O)CN2C(=O)COc3ccc(S(=O)(=O)N4CCCCC4)cc32)cc1N(C)C,-,.,-,-,-
COc1ccc(N2CCN(C(=O)c3ccc(NS(=O)(=O)c4cccc(F)c4)cc3)CC2)cc1,-,-,?,-,-
COc1ccc(NS(=O)(=O)c2cccc(C(=O)OCC(=O)N3CCN(c4ccc(OC)cc4)CC3)c2)cc1,-,-,21µM,.,-
CCCCOC(=O)c1ccc(NC(=O)c2c(Cl)ccc(Cl)c2OC)cc1,-,16µM,-,-,-
Cc1cc(C)c2c(c1)C1C=CCC1C(C(=O)O)N2 (stereo not drawn),.,.,-,.,-
CCN1CCSc2ccc(C(=O)NC(C)c3ccccc3)cc21 (stereo not drawn),-,.,-,-,-
O=C(O)CCN1C(=O)C2C3C=CC(C3)C2C1=O (stereo not drawn),-,-,-,-,-
O=C1C2C3C=CC(C3)C2C(=O)N1CCCCCCN1C(=O)C2C3C=CC(C3)C2C1=O (stereo not drawn),-,-,15µM,-,-
CCOc1ccc2nc(N3CCCC(C(=O)NCCc4ccc(OC)cc4OC)C3)sc2c1 (stereo not drawn),-,.,?,-,-
Cc1ccc2c(CN3CCN(S(=O)(=O)c4ccc5c(c4)OCCO5)CC3)cc(=O)oc2c1C,-,-,16µM,-,-
Cc1ccc2c(CN3CCN(Cc4ccc5c(c4)OCO5)CC3)cc(=O)oc2c1C,-,-,-,-,-
O=c1cc(C(F)(F)F)[nH]c2ccc(C(F)(F)F)cc12,-,-,21µM,-,?
Cc1cc(=O)c2ccc(C(F)(F)F)cc2[nH]1,-,-,-,-,-
CCOCCCNC(=O)c1ccc(Cn2c(=O)c3cccn3c3cccnc32)cc1,-,.,-,-,-
Cc1ccccc1-n1nc(C)c2cc(C(=O)N3CCN(S(=O)(=O)c4ccc(Cl)cc4)CC3)sc21,-,-,13µM,-,-
